# From PubChem BioAssay AID2013 (Sanford-Burnham Center for Chemical Genomics, 2009)
# Chains of the proteins cited; added tags and fusions are not shown.
# UniProt Q9Y2T6, whole entry: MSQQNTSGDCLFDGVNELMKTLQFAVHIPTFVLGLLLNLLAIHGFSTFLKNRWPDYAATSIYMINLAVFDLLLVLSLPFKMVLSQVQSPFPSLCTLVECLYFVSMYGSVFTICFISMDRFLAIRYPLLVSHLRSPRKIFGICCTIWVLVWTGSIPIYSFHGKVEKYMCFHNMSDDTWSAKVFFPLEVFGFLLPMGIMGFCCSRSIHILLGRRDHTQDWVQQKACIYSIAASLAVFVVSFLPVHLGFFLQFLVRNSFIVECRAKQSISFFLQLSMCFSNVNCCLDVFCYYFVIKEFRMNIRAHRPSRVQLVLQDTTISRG
# The list shows a part of the results, in another mix than the full data. Potency and affinity values are given separately. Active and inactive are the calls of the source.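 Rule for the calls: active = spots per cell inhibited over 60%, with over 100 cells counted and total cytoplasm intensity under 500,000; inconclusive = wells with under 100 cells, flagged as likely toxic; inactive = the rest.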
# Target: G-protein coupled receptor 55 (Homo sapiens) (UniProt Q9Y2T6)
# Assay: inhibition of LPI-stimulated GPR55 beta-arrestin translocation – imaging, U2OS, beta-arrestin-GFP, LPI agonist, primary screen (AID 2013);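 note: U2OS cells stably carrying GPR55 and arrestin-GFP stimulated by 5 µM LPI near EC80; imaged beta-arrestin-GFP aggregate spots per cell after agonist stimulation; plate controls were LPI-stimulated DMSO wells for no effect and DMSO wells without LPI for full effect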
# Conditions: LPI antagonism, at 10 µM, hits give high values
row,SMILES,inhibition
1,COc1cc(C(=O)NCC2(N(C)C)CCCCC2)ccc1OC(F)F,inactive: 0.6%
2,CCOC(=O)N1CCC(Nc2cccc(C)c2)CC1,inactive: -9.2%
3,O=C(NCC1(N2CCCCC2)CCCCC1)c1ccc(F)cc1,inactive: -1.9%
4,CCOC(=O)N1CCC(Nc2ccc(F)cc2)CC1,inactive: -6.7%
5,COc1ccc(NC2CCN(CCc3ccccc3)CC2)c(OC)c1,inactive: 11.1%
6,CCOc1ccc(C)cc1CN(CCCl)CCCl,inactive: 19%
7,CCOC(=O)N1CCC(Nc2ccc(OC)cc2)CC1,inactive: 8.3%
8,O=C(OC1CN2CCC1CC2)C1c2ccccc2Oc2ccccc21 (configuration not stated),inactive: 17.5%
9,N#CC1(Nc2ccccc2)CCN(Cc2ccccc2)CC1,inactive: -5%
10,O=C(NCC1(N2CCOCC2)CCCCC1)c1cc2ccccc2o1,inactive: 14.8%
11,Cc1cc(C)cc(N(C(=O)c2ccccc2)C2CCN(C(=O)OC(C)(C)C)CC2)c1,inactive: -13.1%
12,CSc1ccccc1C(=O)NCC1(N2CCCCC2)CCCCC1,inactive: 8.1%
13,O=C(NCC1(N2CCCCC2)CCCCC1)c1ccc(=O)[nH]c1,inactive: 13.3%
14,COc1ccc(C(=O)NCC2(N3CCCCC3)CCCCC2)cc1,inactive: 9.6%
15,CC(C)(C)OC(=O)N1CCC(N(C(=O)c2ccccc2)c2ccc(F)cc2)CC1,inactive: 2.4%
16,COc1ccc(C(=O)NCC2(N3CCCCC3)CCCCC2)c(OC)c1OC,inactive: -1.3%
17,CCCOc1ccc(C(=O)NCC2(N(C)C)CCCCC2)cc1OC,inactive: 4.9%
18,COc1cc(OC)c(C(=O)NCC2(N(C)C)CCCCC2)cc1OC,inactive: -5.2%
19,COc1ccc(CN(CCCl)CCCl)cc1Cl,inactive: 7.9%
20,CN(C)c1cccc(C(=O)NCC2(N3CCCCC3)CCCCC2)c1,inactive: -1.3%
21,CC(C)c1ccc(NC2CCN(C(=O)OC(C)(C)C)CC2)cc1,inactive: 0.6%
22,COc1ccc(NC2CCN(C(=O)OC(C)(C)C)CC2)cc1,inactive: 10.5%
23,CN1CCN(CCOC(=O)C(O)(c2ccccc2)c2ccccc2)CC1,inactive: 6.6%
24,O=C(NCC1(N2CCOCC2)CCCCC1)c1cc(=O)[nH]c2ccccc12,inactive: -0.3%
25,COc1cc(C(=O)NCC2(N3CCCCC3)CCCCC2)ccc1OC(F)F,inactive: 2%
26,O=C(NCC1(N2CCCCC2)CCCCC1)c1cccc(C(F)(F)F)c1,inactive: 17.7%

row,SMILES,inhibition
1,O=C(NCC1(N2CCCCC2)CCCCC1)c1cccc([N+](=O)[O-])c1,inactive: -4.4%
2,CCN1CCC(Nc2ccc(Cl)cc2)CC1,inactive: 2.7%
3,N#CC1(Nc2ccccc2)CCN(CCc2ccccc2)CC1,inactive: -3.7%
4,O=C(NCC1(N2CCCCC2)CCCCC1)c1ccc(OC(F)F)cc1,inactive: 5.3%
5,c1ccc(CN2CCC(Nc3ccccc3)CC2)cc1,inactive: -2.9%
6,CCCN1CCC(Nc2cc(OC)cc(OC)c2)CC1,inactive: 8.8%
7,CN(C)C1(CNC(=O)c2cccc(C#N)c2)CCCCC1,inactive: 11.7%
8,CC(C)(C)OC(=O)N1CCC(N(C(=O)c2ccccc2)c2ccc(Cl)cc2)CC1,inactive: -3.2%
9,N#Cc1ccc(C(=O)NCC2(N3CCCCC3)CCCCC2)cc1,inactive: 4%
10,O=C(OC1CN2CCC1CC2)C1c2ccccc2C=Cc2ccccc21 (configuration not stated),inactive: -10.9%
11,N/C(=N\O)c1c(N)no[n+]1[O-],inactive: 2.5%
12,CCOC(=O)N1CCC(Nc2ccc(C)cc2)CC1,inactive: -0.6%
13,COc1ccc(C(=O)NCC2(N3CCOCC3)CCCCC2)cc1OC,inactive: 8.6%
14,CN1CCC(Nc2ccc(Cl)cc2)CC1,inactive: 6.8%
15,CCC(CO)(C(=O)OC1CN2CCC1CC2)c1ccccc1 (configuration not stated),inactive: -18.7%
16,COc1cccc(C(=O)N(c2cc(C)cc(C)c2)C2CCN(C(=O)OC(C)(C)C)CC2)c1,inactive: 1.9%
17,COc1cc(OC)cc(C(=O)NCC2(N3CCOCC3)CCCCC2)c1,inactive: 6.7%
18,CCCOc1ccc(C(=O)NCC2(N(C)C)CCCCC2)cc1,inactive: -7.9%
19,CC(C)(C)OC(=O)N1CCC(Nc2ccccc2)CC1,inactive: -1.9%
20,O=C(O)C1(Nc2ccccc2)CCN(Cc2ccccc2)CC1,inactive: 4%
21,CCOc1ncccc1C(=O)NCC1(N2CCOCC2)CCCCC1,inactive: 7.7%
22,CN1CCC(Nc2ccc(F)c(Cl)c2)CC1,inactive: -2.2%
23,CN(C)c1ccc(C(=O)NCC2(N3CCCCC3)CCCCC2)cc1,inactive: 14.1%
24,CCN1CCC(Nc2cccc(F)c2)CC1,inactive: -3.8%
25,Fc1ccccc1NC1CCN(Cc2ccccc2)CC1,inactive: -0.3%
26,COc1cc(OC)cc(C(=O)NCC2(N3CCCCC3)CCCCC2)c1,inactive: 0.3%
